The list shows a part of the results, in another mix than the full data. Calls of active or inactive are those of the source.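 How the source made its calls: active means inhibition above a per-plate limit, the mean inhibition of that plate's test compounds plus 3 SD (cut at about 25% in these data); inactive means the rest.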

This note sets out measurements from PubChem BioAssay AID492965 (The Scripps Research Institute Molecular Screening Center, 2010).

This experiment is described as follows: ATP-evoked calcium inhibition in parental CHO, counter-screen for OX1R antagonist project, cell-based, fluorescence, CHO-K1, triplicate (AID 492965).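 Further: 0% = ATP challenge with DMSO and 100% = DMSO without ATP.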 The note with it: parental CHO-K1, ATP-induced calcium, Fluo-8 fluorescence; at 5.6 µM; active compounds read high. Background: A counterscreen serves to expose hits that act by an unwanted route or on another target.
For the compound `CP(=O)(Nc1ccc2c(c1)OCCO2)Oc1ccccc1` (stereo unspecified), the inhibition (usually the share of the control response that was lost under treatment) is inactive: 2.58%.
